# Source: patent US6376617B1, “Bioactive derivatives of camptothecin” (Pharmacia & Upjohn S.p.A., priority 1997, dated 2002)
# Tested on: human colon carcinoma (HT29)
# Assay: Antitumor activity on human colon carcinoma (HT29) transplanted in nude mice
# Settings: for Tox: HT29 sc in nude mice, iv q4dx8
# Protocol: Tumor fragment were implanted sc. Treatment started when tumor was palpable. TI % (tumor inhibition %) was calculated at day 46.
substance,measurement,setting,value
"copolymer of N-(2-hydroxypropyl)methacrylamide, {7-ethyl-10-hydroxy-20-O-[N-methacryloyl-glycyl-L-phenylalanyl-L-leucyl-glycyl]camptothecin} and N-(2-hydroxypropyl)methacryloylglycinamide [A1]",toxicity (in words),"HT29 in nude mice, i.v. route, all tested doses",non toxic
same,Tox,"dose 5 mg/kg, total dose 40 mg/kg",0/7
same,Tox,"dose 10 mg/kg, total dose 80 mg/kg",0/7
same,Tox,"dose 20 mg/kg, total dose 160 mg/kg",0/7
